The entries are a selection whose mix differs from that of the whole data set. Records with an inconclusive call do not appear. Calls of active or inactive are those of the source. Calls come from the whole dose curve; as a rule, active = well fitted cell-killing curve with a large enough effect in the repeat runs; inconclusive = weak or mixed curves, or effect the other way; inactive = flat fitted curve, though single readings scatter.
assay: qHTS RealTime-Glo MT Cell Viability Assay in HEK293 cells - 24 hour (AID 1224886); conditions: RealTime-Glo luminescence; series mostly up to 76.8 µM; activity change, negative = cytotoxicity: at the top concentration; note: nearly all actives have a fitted effect of over 50% in size; for activity change, negative = cytotoxicity: top concentration of the series differs between compounds
Excerpt: National Center for Advancing Translational Sciences [NCATS]
NIH Chemical Genomics Center [NCGC]
U.S. Environmental Protection Agency [EPA]
National Institutes of Environmental Health Sciences [NIEHS]
National Toxicology Program [NTP]
U.S. Food and Drug Administration [FDA]
Measure of cell viability is critical in the cell-base assay. Analysis of cell viability is necessary for the characterization of cell responses to cytotoxic drugs and environmental stress. A RealTime-Glo MT Cell Viability Assay to monitor cell viability in real time of continues cell culture during 40 hours of compound treatment was used to screen Tox21 10K library compounds in Hek293 cells. The RealTime-Glo MT Cell Viability Assay is a nonlytic, homogeneous, bioluminescent method to measure cell viability in real time using a simple, plate-based method. The assay involves adding NanoLuc luciferase and a cell-permeant prosubstrate to cells in culture. Viable cells reduce the proprietary prosubstrate to generate a substrate for NanoLuc luciferase. This substrate diffuses from cells into the surrounding culture medium, where it is rapidly used by the NanoLuc Enzyme to produce a luminescent signal. The signal correlates with the number of viable cells, making the assay well suited for cytotoxicity studies.
Tox21 Assay Protocol Summary:
The mixture of Hek293 cell suspension and reagents were dispensed at 600cells/6 ul/well in 1536-well tissue culture treated black solid bottom plates using a Multidrop dispenser. After the assay plates were incubated at a 37 C/5% CO2 incubator for 5 hours, 23 nL of compounds dissolved in DMSO, positive and negative controls was transferred to the assay plate by a pintool work station. The plates were incubated at 37 C for 40 hours. The luminescence intensity were measured at 0h, 8h, 16h, 24h, 32h and 40h time points using ViewLux plate reader during compound treatment.
% is set by controls: 0 for no effect and ±100 for the full control effect; potency is the fitted concentration of half-maximal effect.

| SMILES | activity change, negative = cytotoxicity | Potency |
| --- | --- | --- |
| O=P(Cl)(Oc1ccccc1)Oc1ccccc1 | inactive: -14.5% |  |
| O=[p+]1oc2ccccc2c2ccccc21 (centres undefined) | inactive: 4.78% |  |
| CCCCOP(OCCCC)OCCCC | inactive: -1.54% |  |
| O=[N+]([O-])c1ccc([N+](=O)[O-])cc1 | inactive: -20% |  |
| CC(C)CCCCCCCOP(OCCCCCCCC(C)C)Oc1ccccc1 | inactive: -19% |  |
| CN(C(=O)Cc1ccc(Cl)c(Cl)c1)[C@H]1CC[C@@]2(CCCO2)C[C@@H]1N1CCCC1 | inactive: -17.4% [at 35.3 µM] |  |
| O=C(Cl)Oc1ccccc1 | inactive: 7.93% |  |
| CN(C(=O)Cc1ccccc1)[C@H]1CC[C@@]2(CCCO2)C[C@@H]1N1CCCC1 | inactive: 2.03% [at 35.3 µM] |  |
| O=[P+](Oc1ccccc1)Oc1ccccc1 | inactive: 8.76% |  |
| O=C(Cl)OCCOC(=O)Cl | inactive: -19.7% |  |
| COC(=O)Cl | inactive: 1.83% |  |
| NC(=O)Nc1ccc([As](=O)(O)O)cc1 |  | inactive |
| CN(C(=O)Cc1cccc2occc12)[C@H]1CC[C@@]2(CCCO2)C[C@@H]1N1CCCC1 | inactive: 1.88% |  |
| CCOP(=S)(CC)Sc1ccccc1 (centres undefined) | inactive: 0.773% |  |
| CCOC(=O)Cl | inactive: 13.8% |  |
| CCNC(C)Cc1ccc2c(c1)OCO2 (centres undefined) | inactive: -12.6% |  |
| CCCCC(CC)CO[P+](=O)OCC(CC)CCCC (centres undefined) | inactive: -3.82% |  |
| O=P(Cl)(Cl)c1ccccc1 | inactive: 3.64% |  |
| COP(=S)(Cl)OC | inactive: -8.3% |  |
| CCCCCCCCCCCCCC[P+](CCCCCC)(CCCCCC)CCCCCC |  | active: 6.9 µM |
| ClP(Cl)c1ccccc1 | inactive: 13.1% |  |
| CCC(C)(OOC(C)(C)C)OOC(C)(C)C | inactive: 10.6% [at 15.8 µM] |  |
| O=[N+]([O-])c1ccc(S(=O)(=O)O)c([N+](=O)[O-])c1 | inactive: 5.79% |  |
| CCCCO[P+](=O)OCCCC |  | inactive |

Reference: PubChem BioAssay (Tox21)
